Earlier results as cited in patent publication US10206402B2, “Environmentally-friendly emamectin benzoate preparation and preparation method therefor” (NANJING SCIENX BIOLOGICAL TECHNOLOGY CO., LTD, priority 2014, dated 2019).

Details: in water; 25° C.

Substance: Emamectin benzoate
- water solubility: about 0.024 g/L
